Screening results deposited in PubChem by National Center for Advancing Translational Sciences (NCATS).
Shown are actives, neighbours in structure and some others; about 0.59% of the full set was active somewhere.
a7 integrin act: activates integrin-mediated alleviation for muscular dystrophy. alpha7betagal myoblasts, beta-gal FDG fluorescence, 48 h. Potency, µM (doses to about 38.3 µM), most hits filed as activators. actives 0.064% (n = 350,000); active = well fitted activation curve with a large enough effect; inconclusive = small, poorly fitted or top-dose-only effect; inactive = no such curve, though single readings can be large or run the other way; note: nearly all actives have a fitted effect of over 60% in size
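Alpha7betagal+/- myoblasts (passage 13) were plated 16-24 hr, then exposed to compounds (1:260 dilution of DMSO stock) for 48 hours at 37C. After MPER lysis, β-galactosidase reporter activity was read as FDG fluorescence (ex 480/em 540) after 30 minutes.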
Rango complex inh: Rango-importin beta binding inhibition; Potency, µM (series often up to 92.2 µM); AID 540263; Rango CFP/YFP FRET sensor + importin beta, 45 min; Q14974; actives 0.031% (n = 340,000); note: nearly all actives have a fitted effect of over 15% in size
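Inhibition scored from the CFP 486 nm/YFP 530 nm FRET ratio 45 min after adding 0.125 microM importin beta to 50 nM Rango biosensor preincubated 5 min with compound (room temperature, PBS with DTT, Tween-20, BSA). No-importin wells as positive control.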
Rango release inh: inhibitors of RanGTP-induced Rango-importin beta complex dissociation | O95149+P62826 | Biochemical FRET Rango-importin beta, RanGTP-induced dissociation | actives 0.071% (n = 340,000) | AID 540253 | Potency, µM (series often up to 46.1 µM); note: nearly all actives have a fitted effect of over 45% in size
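Quantitative HTS using a FRET biosensor: 0.1 uM Rango, 0.25 uM importin beta, 0.6 uM Ran, 2 mM GTP, 0.2 uM RCC1 final, PBS with DTT, Tween-20 and BSA. Post-read taken 45 min after Ran addition.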
uPA generation: blocks generation of uPA at the cell surface | cell surface uPA generation assay, qHTS | Potency, µM (doses to about 38.3 µM), most hits filed as inhibitors | actives 0.31% (n = 330,000); active = well fitted inhibition curve with a large enough effect; inconclusive = small, poorly fitted or top-dose-only effect; inactive = no such curve, though single readings can be large or run the other way; tested in mouse RAW 264.7 cells; note: nearly all actives have a fitted effect of over 55% in size
Giardia killer: Giardia lamblia killing | activity change, % at 7.66 µM, hits read low | Giardia lamblia trophozoite viability | actives 0.15% (n = 340,000); in the data active = activity change below about -80%; inconclusive = between about -30% and that limit;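 note: parasites exposed to compound for two days anaerobically before the ATP read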
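ATP-content bioluminescence gauges trophozoite survival. Cells (100/well) receive compound and incubate anaerobically for 48 hrs at 37 deg C; detection reagent follows for 15-30 min at room temperature.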
A number is an active result; – = inactive; ? = inconclusive; · = not tested or not shown; [ ] = remark or other dose. Unless noted, calls come from the whole dose curve.

SMILES	a7 integrin act	Rango complex inh	Rango release inh	uPA generation	Giardia killer
CC(C)C[C@@H](CN)NC(=O)c1nc[nH]c1C(=O)N[C@@H](C)C(=O)CNC[C@H](C)NC(=O)c1nc[nH]c1C(=O)N[C@@H](CC(=O)O)C(=O)O	–	–	–	–	–
COc1cc(C(=O)OCCc2cc3ccccc3c(=O)o2)cc(OC)c1OC	–	–	–	1.1µM	–
COc1cc(C(=O)OCCCc2cc3ccccc3c(=O)o2)cc(OC)c1OC	–	–	–	–	–
CCCN1CNc2c(c(=O)[nH]c(=S)n2CCc2cccc(C)c2)C1	·	·	·	·	–
O=C(Nc1ccc2ccccc2c1)c1ccc(Cl)cc1	–	–	–	10µM	–
Cc1ccc2cc(C#N)c(NCCNC(=S)NCCCN(C)C)nc2c1C	–	?	?	10µM	–
Cc1cc(O)c(CN(C)C)c2c1C(=O)/C(=C/c1ccco1)O2	–	?	26µM	–	–
COc1ccc2c(c1)O/C(=C\c1ccco1)C2=O	–	?	?	–	–
N#Cc1ccc(OCC(O)CS(=O)(=O)c2ccccc2)cc1 (configuration not stated)	10µM	–	–	·	–
Cc1cccc(CN2C(=O)CSc3ccc(C(=O)NC4CC4)cc32)c1	–	–	–	–	–
COC(=O)C1=C[C@@H](C(=O)OC)[C@@H]2C3=C(C(=O)[C@@]2(C)NC(=O)c2ccccc2)[C@H](C)[C@@H]2C(=O)N(c4ccccc4)C(=O)[C@@H]2[C@@H]3C1	·	·	·	·	–
CCOC(=O)N=Nc1c(O)n(CC(=O)OC)c2ccccc12	–	–	–	–	–
CCOC(=O)N=Nc1c2ccccc2c2nc3no[nH]c3nc12	–	–	–	–	-96
Cc1cnc(NC(=O)Cc2ccc(Br)cc2)s1	–	–	–	–	–
O=C(COC(=O)COc1ccccc1)Nc1ncc([N+](=O)[O-])s1	–	–	–	–	–
O=C(Cc1ccc(Cl)cc1)Nc1ncc([N+](=O)[O-])s1	–	–	–	–	-91
O=C(Cc1ccc(Br)cc1)Nc1ncc([N+](=O)[O-])s1	–	–	?	–	-93
O=C(COc1ccc(Cl)cc1)Nc1ncc([N+](=O)[O-])s1	–	–	–	–	-86
COc1ccc(NC2CCCN(C(=O)CCCn3cncn3)C2)cc1OC (configuration not stated)	–	–	–	–	–
O=c1cc(-c2ccc(O)cc2)oc2ccc3ccccc3c12	–	?	–	0.89µM	?
COc1cccc(OCc2ccc(Cl)cc2)c1C#N	–	–	–	8.9µM	–
O=S(=O)(c1c(F)cccc1F)N1CCCC2CCCCC21 (configuration not stated)	–	–	–	–	–
CC(=O)Oc1cc(C(=O)OCC(=O)NC23CC4CC(CC(C4)C2)C3)cc(OC(C)=O)c1OC(C)=O	–	?	–	10µM	–
Cc1ccnc(NC(=O)c2ccc([N+](=O)[O-])o2)c1	–	–	–	–	?
O=C(Nc1ncccn1)c1ccc([N+](=O)[O-])o1	–	?	–	–	-93
SMILES	a7 integrin act	Rango complex inh	Rango release inh	uPA generation	Giardia killer
O=C(Nc1ccccn1)c1ccc([N+](=O)[O-])o1	–	–	–	7.1µM	-93
O=C(Nc1cc(-c2nc3ncccc3o2)ccc1Cl)c1ccc([N+](=O)[O-])o1	–	–	–	–	-83
O=C(Nc1cc(-c2nc3ncccc3o2)ccc1Cl)c1cccs1	–	–	–	–	–
COc1ccc(/C=C2/CCC(CN3CCOCC3)C2=O)cc1 (configuration not stated)	–	–	–	–	–
CNC[C@H](CC1CCCCC1)NC[C@H](CO)NCCc1cccc(C(F)(F)F)c1	–	–	–	7.9µM	–
CNC[C@H](CC1CCCCC1)NC[C@H](CO)NCC1(c2ccccc2)CC1	–	–	–	–	–
CN(CC(=O)Nc1cccc(F)c1)C(=O)c1ccc(-c2ccc(Cl)cc2)o1	11µM	–	–	–	–
CC1=C(C(=O)N2CCOCC2)CC(CC(=O)NC(c2ccccc2)c2ccccc2)C(=O)N1Cc1ccc(F)cc1 (configuration not stated)	–	·	·	·	·
COc1cc2sc3cc(NCc4ccc(C)o4)ccc3c(=O)c2cc1OC	–	?	?	13µM	?
COc1cc2sc3cc(NCc4ccc5c(c4)OCO5)ccc3c(=O)c2cc1OC	–	?	?	–	–
CCN(CC)c1ccc(C(=C2C=CC(=[N+](CC)CC)C=C2)c2ccc(S(=O)(=O)O)cc2S(=O)(=O)[O-])cc1	–	–	–	?	?
COc1cccc(C(=O)Nc2ccc3c(cc2=O)[C@@H](NC(C)=O)CCc2cc(OC)c(OC)c(OC)c2-3)c1	–	?	–	10µM	–
C=CCn1c(SCC#N)nc2cc(Cl)ccc2c1=O	·	·	·	·	–
Cc1ccc2[nH]c(=O)c(C(c3nnnn3Cc3ccccc3)N3CCc4ccccc43)cc2c1 (configuration not stated)	–[7.66 µM]	?	?	–	–
Cc1ccc2cc(C(c3nnnn3Cc3ccccc3)N3CCc4ccccc43)c(=O)[nH]c2c1 (configuration not stated)	–[7.66 µM]	?	23µM	·	–
COc1ccc(-c2csc3ncnc(N4CCN(c5cccc(Cl)c5)CC4)c23)cc1	–	–	–	11µM	–
COc1ccc(-c2csc3ncnc(N4CCN(c5cccc(OC)c5)CC4)c23)cc1	–	–	–	–	–
COc1ccc(Br)cc1C1C2C=CCCC2(C)C(=O)N1Cc1ccccc1 (configuration not stated)	·	·	·	·	–
COC(=O)CC1=C(c2ccc([N+](=O)[O-])cc2)CCC1=O	–	–	–	–	–
Cc1ccc(C2=C(CC(=O)O)C(=O)CC2)cc1	4.5µM	–	–	–	–
COc1ccc([C@H]2CC(=O)C=C(c3cc(C=O)ccc3OC)C2)cc1	–	–	–	6.3µM	–
COc1ccc([C@H]2CC(=O)C=C(c3cc(C=O)ccc3OC)C2)cc1OC	–	–	–	?	–
O=C(CCc1ccccc1)c1nnc(-c2ccccc2)o1	10µM	–	?	–	–
COc1cccc(OCc2cc(C3Nc4ccccc4C(=O)N3c3ccccc3)ccc2OC)c1 (configuration not stated)	·	·	·	·	–
COc1cc(C(=O)NCCOc2cc(C)cc(C)c2)cc(OC)c1OC	–	–	–	2.5µM	–
SMILES	a7 integrin act	Rango complex inh	Rango release inh	uPA generation	Giardia killer
CC(=O)c1ccc(NS(=O)(=O)c2cccc3cccnc23)cc1	–	·	·	·	·
Cc1cc(C(=O)N/N=C/c2cccc(OC(=O)c3cccc(Br)c3)c2)n[nH]1	–	–	–	–	–
COc1cccc(C(=O)Oc2c(Br)cc(Br)cc2/C=N/NC(=O)c2cc(C)[nH]n2)c1	–	?	18µM	4µM	–
NC(=O)c1ccc(NC(=O)CN2C(=O)NC3(CCCCCCC3)C2=O)cc1	–	2.1µM	–	–	–
O=C(CN1C(=O)NC2(CCCCC2)C1=O)Nc1ccc(F)cc1	–	–	–	–	–
CNCCN(C)c1nc(-c2cccs2)nc2ccccc12	·	·	·	·	–
